Structures are written as SMILES.

By UniProt entry, the sequences of proteins in these tests, tags left out. Residues count along the entry.
UniProt P00915, 2-261 limits assumed: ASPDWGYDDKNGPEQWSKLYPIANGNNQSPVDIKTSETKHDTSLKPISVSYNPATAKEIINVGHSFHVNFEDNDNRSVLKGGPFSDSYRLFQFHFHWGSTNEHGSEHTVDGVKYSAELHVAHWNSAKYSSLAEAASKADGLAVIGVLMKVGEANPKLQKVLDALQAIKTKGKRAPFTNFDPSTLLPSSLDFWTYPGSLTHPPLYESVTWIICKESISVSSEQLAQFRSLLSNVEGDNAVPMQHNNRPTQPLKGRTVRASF

This experiment deals with Carbonic anhydrase 1 (Homo sapiens) (UniProt P00915). Put plainly: Activation constant towards human cytosolic carbonic anhydrase I; Activator.

In the case of `CP(=O)(O)O`, the KA was determined as 1.2 µM.

These data come from ChEMBL document CHEMBL1142045, “Carbonic anhydrase inhibitors. Interaction of isozymes I, II, IV, V, and IX with organic phosphates and phosphonates” (Bioorg Med Chem Lett, 2005).
